According to article PMC2363125 (British Journal of Cancer, 1999):

System: L1210 cells
Details: mouse
From the text: In particular, inhibition of thymidylate synthase (TS) is an attractive target for antimetabolite chemotherapy because thymine is the only nucleobase found exclusively in DNA and TS is a key enzyme, possibly the rate-limiting step, in DNA synthesis. One locus of action of 5-fluorouracil (5-FU), which is widely used for the treatment of colorectal, breast and head-and- neck cancer, is TS inhibition following its intracellular conversion to 5-FdUMP. […] Inhibition of TS results in the depletion of intracellular dTTP and, as a result of elevated dUMP levels, an accummulation of dUTP. […] In addition, release of nucleic acids from dead cells may result in high local concen- trations of salvageable nucleosides and bases in tumours. […] Cell number and viability in each assay was determined by haemocytometer counting using trypan blue exclu- sion. […] The rate of thymidine uptake in the presence and absence of inhibitor was calculated by unweighted linear regres- sion analysis of thymidine uptake (pmol 10-6 cells) vs time (seconds) using GraphPad PRISMTM software (GraphPad Software Inc. San Diego, CA, USA). […] Kt and Tmax values were calculated using the equation describing a one-site binding hyperbola, fitted using GraphPad PRISM software. […] Replicate aliquots of the remaining cell suspension were counted to obtain a time zero cell count.

Compound: OCCN(CCO)c1nc(N2CCCCC2)c2nc(N(CCO)CCO)nc(N3CCCCC3)c2n1 [Dipyridamole, 2,6-bis-(diethanolamino)-4,8-di-piperidino-pyrimidopyrimidine]
- LC50 of 5-FU: 3.4 M
